Measurements from PubChem BioAssay AID588692 (Broad Institute, 2011).
The list shows a part of the results, in another mix than the full data. Some of these compounds have results that are not shown, active ones among them. Activity calls are given as the source filed them.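 The calls were made as follows: active = mean luciferase reporter signal, scaled so untreated is 0 and the glycosylation-blocking control 100, at or above a set limit in every replicate; inconclusive = mean reaches the limit but not every replicate does; inactive = mean below the limit.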

Experiment: increase of ERlucT glycosylation luciferase signal, primary screen, N-linked glycosylation inhibitor project, D54 ERlucT cells, luminescence, set 2 (AID 588692);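 also: luciferase carries N-glycosylation sites so blocking glycosylation raises the light; 0% = median of neutral control wells and 100% = median of 100 nM tunicamycin wells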
Conditions: 24 h, at 12.5 µM, stronger effect = higher value, percent of 100 nM tunicamycin response

Compound	reporter increase
O=C(NCC1(N2CCCCC2)CCCCC1)c1cccc(Br)c1	inactive: -5.88%
CCN1CCCC(OC(=O)C2(O)c3ccccc3C=Cc3ccccc32)C1 (stereo unspecified)	inactive: -1.41%
Cc1cc(C(=O)NCC2(N3CCCCC3)CCCCC2)ccc1[N+](=O)[O-]	inactive: -7.1%
COc1ccc(C(=O)NCC2(N(C)C)CCCCC2)cc1	inactive: 0.906%
O=C(NCC1(N2CCCCC2)CCCCC1)c1cc(F)c(F)cc1Cl	inactive: -1.03%
C=CCN1CCN(CCOC(=O)C(O)(c2ccccc2)c2ccccc2)CC1	inactive: 0.234%
CN(C)c1ccc(C(=O)NCC2(N(C)C)CCCCC2)cc1	inactive: 1.78%
CN(C)C1CCCC1OC(=O)C(O)(c1ccccc1)c1ccccc1 (stereo unspecified)	inactive: -0.924%
Cc1ccccc1C(=O)NCC1(N2CCCCC2)CCCCC1	inactive: 1.54%
Cc1ccc(C(=O)NCC2(N3CCCCC3)CCCCC2)cc1	inactive: -3.24%
CC(C)N1C(=O)CC2(CCN(CCOC(=O)C(O)(c3ccccc3)c3ccccc3)CC2)C1=O	inactive: -2.49%
COc1cc(SC)ccc1C(=O)NCC1(N(C)C)CCCCC1	inactive: 0.964%
CCN(CC)CC(C)C(C)OC(=O)C(O)(c1ccccc1)c1ccccc1 (stereo unspecified)	inactive: -0.854%
CN1[C@@H]2CC[C@H]1CC(OC(=O)C(O)(c1ccccc1)c1ccccc1)C2 (stereo partly specified)	inactive: -0.912%
O=C(NCC1(N2CCCCC2)CCCCC1)c1cc([N+](=O)[O-])ccc1Cl	inactive: -7.62%
CN(C)c1cccc(C(=O)NCC2(N(C)C)CCCCC2)c1	inactive: -0.916%
O=C(OCCN1CCCC1)C(O)(c1ccccc1)c1ccccc1	inactive: -0.197%
CC(C)Oc1ccc(C(=O)NCC2(N(C)C)CCCCC2)cc1	inactive: -3.01%
COc1ccc(Br)c(C(=O)NCC2(N3CCCCC3)CCCCC2)c1	inactive: -0.433%
C=C(C)C#CC(O)(C(=O)OC1CCN(C)CC1)c1ccccc1 (stereo unspecified)	inactive: -0.223%
O=C(OC1CN2CCC1CC2)C(CO)(c1ccccc1)c1ccccc1 (stereo unspecified)	inactive: 2.68%
O=C(NCC1(N2CCCCC2)CCCCC1)c1cccc(Cl)c1	inactive: -6.17%
COc1ccc(Cl)cc1C(=O)NCC1(N(C)C)CCCCC1	inactive: 2.51%
COc1cccc(C(=O)NCC2(N3CCCCC3)CCCCC2)c1	inactive: -3.79%
COc1cc(C(=O)NCC2(N(C)C)CCCCC2)c([N+](=O)[O-])cc1OC	inactive: 0.75%
CN(C)C1(CNC(=O)c2ccc(Br)cc2)CCCCC1	inactive: -2.54%
